Measurements reported in US11912789.

Experiments:
[1] = target: T1, RSKAKNPLYR
T1 chain: RSKAKNPLYR

[2] = target: T2, RSKAKNPLYR-(2Adod)4-NH2
T2 chain: RSKAKNPLYR

[3] = target: T3, RSKAKNPLY
T3 chain: RSKAKNPLY

B1: Lymphocyte-specific protein tyrosine kinase (Lck), enzyme in cell-free kinase assay (protein)
chain: MGCGCSSHPEDDWMENIDVCENCHYPIVPLDGKGTLLIRNGSEVRDPLVTYEGSNPPASPLQDNLVIALHSYEPSHDGDLGFEKGEQLRILEQSGEWWKAQSLTTGQEGFIPFNFVAKANSLEPEPWFFKNLSRKDAERQLLAPGNTHGSFLIRESESTAGSFSLSVRDFDQNQGEVVKHYKIRNLDNGGFYISPRITFPGLHELVRHYTNASDGLCTRLSRPCQTQKPQKPWWEDEWEVPRETLKLVERLGAGQFGEVWMGYYNGHTKVAVKSLKQGSMSPDAFLAEANLMKQLQHQRLVRLYAVVTQEPIYIITEYMENGSLVDFLKTPSGIKLTINKLLDMAAQIAEGMAFIEERNYIHRDLRAANILVSDTLSCKIADFGLARLIEDNEYTAREGAKFPIKWTAPEAINYGTFTIKSDVWSFGILLTEIVTHGRIPYPGMTNPEVIQNLERGYRMVRPDNCPEELYQLMRLCWKERPEDRPTFDYLRSVLEDFFTATEGQYQPQP
[1]
  auto-phosphorylation of Lck at Y394 (Western blot, anti-pY394 Lck), peptide at 10 µM and 30 µM: weak auto-phosphorylation of Lck at Y394 in the presence of ATP that does not increase with exposure of Lck to the peptide RSKAKNPLYR at 10 µM and 30 µM
[2]
  auto-phosphorylation of Lck at Y394 (Western blot, anti-pY394 Lck), compound at 10 µM: the auto-phosphorylation of Lck observed in the presence of 10 µM RSKAKNPLYR-4C10 exceeded that observed for RSKAKNPLY alone at the same concentration
[3]
  auto-phosphorylation of Lck at Y394 (Western blot, anti-pY394 Lck), peptide at 10 µM and 30 µM: exposure of Lck to the peptide RSKAKNPLY at 10 µM and 30 µM induces a dose-dependent auto-phosphorylation of Lck
